Results from patent US20230330243A1, “COMBINATION OF ANTIBODY-DRUG CONJUGATE AND ATR INHIBITOR” (Daiichi Sankyo Company, Limited, priority 2020, published 2023).

Tests used:
Assay type in all cases: cell-based
[1] = test system: DU145-SLFN11 KO (CRISPR-Cas9 gene knockout of SLFN11); experiment: Nuclear cell count growth inhibition, 4 to 8 days (Example 4); details: Prostate, HER2 Low, monotherapy
Experimental: (§1) Cells grown in their respective conditions were plated in 96-well plates at optimal density to allow linear proliferation for the duration of the assay (4 to 8 days; duration of treatment is dependent on the growth rate of each cell line). Immediately after plating, the cells were dosed with the indicated compounds for a total volume of 200 µL/well and placed in the incubator. Combinations were conducted as a 6 × 8 concentration response matrix for each combination. At the endpoint, the cells were fixed in 2% PFA for 20 minutes at room temperature. In order to obtain the number of cells at the start of treatment, one additional plate was used for each experiment and fixed after cells attached. The cells were then permeabilised in 0.5% Triton-X100 in PBS for 10 minutes. After a PBS wash, the cells were blocked in 5% FBS in PBS 1h at RT and incubated with primary antibodies in 5% FBS + 0.05% triton overnight at 4° C. After 3 washes in PBS cells were incubated with secondary antibodies in 5% FBS + 0.05% triton with Hoechst33258 for 1h at room temperature. After 3 washes in PBS, the cells were scanned with a Cellinsight instrument with a 10× objective and 9 fields/well. Images were analysed using Columbus for cell count based on nuclear Hoechst staining and nuclear intensity of other biomarkers investigated. The total cell count/well was used to calculate the relative growth in each well compared to solvent control. […] The mean/well of the sum of the nuclear intensity of the IF biomarkers was also expressed relative to solvent control.

[2] = test system: DU145; experiment: as above; details: DU145, Prostate, HER2 Low; monotherapy
Experimental: as §1

[3] = test system: NCI-N87; experiment: as above; details: NCI-N87, Gastric, HER2 High; monotherapy
Experimental: as §1

[4] = test system: ATR pathway in KPL4 (breast carcinoma) cells; experiment: Antibody blots of ATR signaling (Example 6); details: DS-8201 at 30 µg/mL or exatecan mesylate alone, 7 h, 24 h or 48 h
Experimental: (§2) Gastric cancer NCI-N87 and breast carcinoma KPL4 cell lines were cultured in RPMI 1640 supplemented with 10 % FCS in a humidified incubator at 37° C. with 5% CO2. Cells were plated in 6-well plates at optimal density to allow linear proliferation for the duration of the assay. […] 7 h, 24 h or 48 h after dosing, whole-cell extracts were obtained by lysis in 50 mM Tris-HC1 pH 7.5, 2% SDS containing protease and phosphatase inhibitors. Lysates were boiled for 5 minutes at 95° C. Protein concentration was measured using a Nanodrop at […] and 50 µg of lysate were loaded in 4-12% Bis Tris gels. Proteins were transferred using iblot2. Primary antibodies (see Table 7) were incubated overnight at 4° C. in 3% milk TBS-tween 0.05% and HRP-conjugated secondary antibodies for 1h at room temperature. Blots were imaged using a G-box.

[5] = test system: ATR pathway in NCI-N87 (gastric cancer) cells; experiment: Antibody blots of ATR signaling (Example 6); details: DS-8201 at 30 µg/mL or exatecan mesylate alone, 7 h, 24 h or 48 h
Experimental: as §2

[6] = test system: KPL4; experiment: Nuclear cell count growth inhibition / synergy and IF biomarkers, 4 to 8 days (Example 4)
Experimental: as §1

[7] = test system: MDA-MB-468; experiment: as above; details: MDA-MB-468, Breast, HER2 Low; monotherapy
Experimental: as §1

[8] = test system: SK-OV-3; experiment: Nuclear cell count growth inhibition / synergy, 4 to 8 days (Example 4); details: SK-OV-3, Ovarian, HER2 Moderate; monotherapy
Experimental: (§3) Cells grown in their respective conditions were plated in 96-well plates at optimal density to allow linear proliferation for the duration of the assay (4 to 8 days; duration of treatment is dependent on the growth rate of each cell line). Immediately after plating, the cells were dosed with the indicated compounds for a total volume of 200 µL/well and placed in the incubator. Combinations were conducted as a 6 × 8 concentration response matrix for each combination. At the endpoint, the cells were fixed in 2% PFA for 20 minutes at room temperature. In order to obtain the number of cells at the start of treatment, one additional plate was used for each experiment and fixed after cells attached. The cells were then permeabilised in 0.5% Triton-X100 in PBS for 10 minutes. After a PBS wash, the cells were blocked in 5% FBS in PBS 1h at RT and incubated with primary antibodies in 5% FBS + 0.05% triton overnight at 4° C. After 3 washes in PBS cells were incubated with secondary antibodies in 5% FBS + 0.05% triton with Hoechst33258 for 1h at room temperature. After 3 washes in PBS, the cells were scanned with a Cellinsight instrument with a 10× objective and 9 fields/well. Images were analysed using Columbus for cell count based on nuclear Hoechst staining and nuclear intensity of other biomarkers investigated. […]

[9] = test system: JIMT-1; experiment: as above; details: JIMT-1, Breast, HER2 Expressed; monotherapy
Experimental: as §3

DS-8201: anti-HER2 antibody-drug conjugate: exatecan-derivative drug-linker conjugated to anti-HER2 antibody via a thioether bond; DAR 7.7 or 7.8
GI50 [1]: 17080 ng/mL
GI50 [2]: 18361 ng/mL
GI50 [3]: 19 ng/mL
ATR pathway (pATR-T1989, pChk1-S345) and cell cycle arrest (pCdc2-Y15) [4]: induced activation of the ATR pathway
ATR pathway (pATR-T1989, pChk1-S345) and cell cycle arrest (pCdc2-Y15) [5]: induced activation of the ATR pathway
GI50 ([6]; KPL4, Breast, HER2 High, monotherapy): 44 ng/mL
Biomarkers of ATM (KAP1 pSer824) activation and DNA strand breaks (γH2AX) ([6]; KPL4, single agent): induced in a concentration dependent manner
GI50 [7]: 3367 ng/mL
GI50 [8]: 4674 ng/mL
GI50 [9]: 22609 ng/mL
